{
  "source": "patent US12491172B2",
  "about": "“Treatment of diabetes” (priority 2019, dated 2025)",
  "key": {"[1]": {"tested_on": "isolated pancreatic islets", "test": "Static batch incubation (insulin secretion) of isolated islets", "type": "cell-based, mouse"}, "[2]": {"tested_on": "isolated pancreatic islets", "test": "Measurements of cytoplasmic free Ca2+-concentration in islets", "type": "cell-based, mouse"}, "HIF-1α target genes": {"tested_on": "HIF-1α target genes", "test": "Gene expression of HIF-1α target genes in isolated islets (RT-qPCR)", "type": "cell-based, mouse", "details": "islets treated with GKA50, with PX-478, 20 hours"}, "[3]": {"tested_on": "isolated pancreatic islets", "test": "Cell viability of islets using propidium iodide", "details": "islets treated 20 hours, with or without GKA50 co-treatment"}, "db/db mice [4]": {"tested_on": "db/db mice", "test": "Glucose and insulin tolerance test in db/db mice"}, "[5]": {"tested_on": "STZ-treated C57BL/6J mice", "test": "Diabetes progression in streptozotocin-treated C57BL/6J mice"}, "db/db mice [6]": {"tested_on": "db/db mice", "test": "Diabetes progression in db/db mice treated from 6 weeks of age"}, "db/db mice [7]": {"tested_on": "db/db mice", "test": "Diabetes progression in db/db mice already hyperglycemic at 5 weeks of age"}, "[8]": {"tested_on": "white adipose tissue of db/db mice", "test": "Gene expression analysis of visceral and subcutaneous white adipose tissue in db/db mice", "details": "30-40 mg per kg PX-478 IP"}, "[9]": {"tested_on": "pancreatic islets of db/db mice", "test": "Immunocytochemistry of pancreas sections of db/db mice (Ki67, insulin, glucagon, somatostatin)"}, "[10]": {"details": "db/db mice after 6 hours of fasting"}},
  "data": [
    {"smiles": "N[C@@H](Cc1ccc([N+]([O-])(CCCl)CCCl)cc1)C(=O)O", "values": [
      {"measurement": "basal insulin secretion", "setting": "[1]; 3.3 mM glucose, after 20 hours treatment and 2 hours fasting", "result": "significantly decreased basal insulin secretion levels to near control values"},
      {"measurement": "insulin release at high glucose concentration", "setting": "[1]; 16.7 mM glucose, after 20 hours treatment", "result": "did not have any deleterious effect on insulin secretion at high glucose concentration"},
      {"measurement": "secretory index", "setting": "[1]; GKA50-treated islets in absence (1.2) or presence (3.4) of the HIF-1α inhibitor", "result": 3.4, "unit": "fold"},
      {"measurement": "insulin content", "setting": "[1]; islets treated with GKA50 with or without PX-478", "result": "no impact on insulin content"},
      {"measurement": "speed of [Ca2+]i response to glucose", "setting": "[2]; 20 μM GKA50 with or without 50 μM PX-478", "result": "not changed"},
      {"measurement": "basal [Ca2+]i oscillations", "setting": "[2]; 3 mM glucose, after 20 hours 20 μM GKA50 with or without 50 μM PX-478 and 2 hours fasting", "result": "prevented basal [Ca^2+]i oscillations"},
      {"measurement": "raise of [Ca2+]i in response to glucose", "setting": "[2]; PX-478 in the presence of the GKA activator", "result": "decreased the raise of [Ca^2+]i in response to glucose"},
      {"measurement": "expression of Glut1, Igfbp3, Hk2 and Pgk1", "setting": "HIF-1α target genes", "result": "significantly decreased"},
      {"measurement": "cell viability (propidium iodide)", "setting": "[3]", "result": "does not decrease cell viability"},
      {"measurement": "fasting blood glucose", "setting": "db/db mice [4]; [10]", "result": "low blood glucose"},
      {"measurement": "fasting plasma insulin levels relative to non-treated db/db mice", "setting": "db/db mice [4]; [10]", "result": 2, "unit": "fold"},
      {"measurement": "peripheric insulin sensitivity (ITT)", "setting": "db/db mice [4]; db/db mice, 6 hours fasted, 0.5 U insulin per kg IP", "result": "without improvement of peripheric insulin sensitivity"},
      {"measurement": "tolerance to glucose (GTT)", "setting": "db/db mice [4]; db/db mice, 6 hours fasted, 1.5 g glucose per kg IP", "result": "improved tolerance to glucose"},
      {"measurement": "blood glucose concentration", "setting": "[5]; 40-45 mg per kg", "result": "significantly decreased blood glucose concentration"},
      {"measurement": "body weight", "setting": "[5]; inhibitor twice a week", "result": "did not influence the body weight"},
      {"measurement": "non-fasting plasma insulin", "setting": "db/db mice [6]; IP twice a week for 7 weeks", "result": "remained hyperinsulinemic until the end of the experiment"},
      {"measurement": "non-fasting blood glucose", "setting": "db/db mice [6]; IP twice a week for 7 weeks, 30-40 mg per kg", "result": "no increase of glycemia was observed"},
      {"measurement": "body weight", "setting": "db/db mice [6]; IP twice a week for 7 weeks, 30-40 mg per kg, versus non-treated", "result": "without presenting any statistically significantly difference between the two groups of animals"},
      {"measurement": "time after first administration at which suppression of non-fasting blood glucose was seen", "setting": "db/db mice [6]; twice a week, 30 mg per kg", "result": 5, "unit": "days"},
      {"measurement": "body weight", "setting": "db/db mice [7]; 40 mg per kg", "result": "without significantly affecting body weight"},
      {"measurement": "blood glucose", "setting": "db/db mice [7]; 40 mg per kg twice a week", "result": "decreased blood glucose in a time-dependent manner"},
      {"measurement": "plasma insulin level relative to PBS injected group", "setting": "db/db mice [7]; end of the study", "result": 2.5, "unit": "fold"},
      {"measurement": "gene expression in visceral and subcutaneous WAT", "setting": "[8]", "result": "no major change in gene expression"},
      {"measurement": "number of glucagon and somatostatin-producing cells", "setting": "[9]; db/db mice", "result": "reduced the number of glucagon and somatostatin-producing cells"},
      {"measurement": "rate of proliferating beta cells (Ki67 staining)", "setting": "[9]; db/db mice treated twice a week for 7 weeks versus untreated", "result": "higher rate of proliferating beta cells"},
      {"measurement": "ratio of beta/alpha and beta/delta cells", "setting": "[9]; db/db mice treated versus non-treated", "result": "higher than in non-treated mice"},
      {"measurement": "area of α, β or δ cells compared to total endocrine area", "setting": "[9]; db/db mice, gastric/duodenal and splenic part of pancreas", "result": "increased p cell area with a concomitant reduction in a and 6 cell area"}
    ]}
  ]
}
